This note sets out measurements from PubChem BioAssay (NCATS).

The chains behind the UniProt entries cited, without tags or fusion partners. Residues count along the entry.
UniProt Q07869, whole entry: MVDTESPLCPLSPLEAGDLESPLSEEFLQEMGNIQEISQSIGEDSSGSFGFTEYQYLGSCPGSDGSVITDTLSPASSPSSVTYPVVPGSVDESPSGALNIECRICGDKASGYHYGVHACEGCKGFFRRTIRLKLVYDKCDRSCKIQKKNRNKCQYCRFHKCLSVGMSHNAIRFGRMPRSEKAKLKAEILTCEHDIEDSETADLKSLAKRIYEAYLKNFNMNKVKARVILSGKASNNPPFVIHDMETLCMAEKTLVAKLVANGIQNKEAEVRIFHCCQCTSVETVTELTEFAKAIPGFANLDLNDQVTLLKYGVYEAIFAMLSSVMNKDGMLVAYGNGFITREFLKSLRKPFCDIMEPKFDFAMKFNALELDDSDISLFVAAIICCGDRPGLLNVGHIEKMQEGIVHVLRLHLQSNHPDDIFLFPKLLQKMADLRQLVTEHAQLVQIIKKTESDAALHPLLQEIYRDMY
UniProt P10828, whole entry: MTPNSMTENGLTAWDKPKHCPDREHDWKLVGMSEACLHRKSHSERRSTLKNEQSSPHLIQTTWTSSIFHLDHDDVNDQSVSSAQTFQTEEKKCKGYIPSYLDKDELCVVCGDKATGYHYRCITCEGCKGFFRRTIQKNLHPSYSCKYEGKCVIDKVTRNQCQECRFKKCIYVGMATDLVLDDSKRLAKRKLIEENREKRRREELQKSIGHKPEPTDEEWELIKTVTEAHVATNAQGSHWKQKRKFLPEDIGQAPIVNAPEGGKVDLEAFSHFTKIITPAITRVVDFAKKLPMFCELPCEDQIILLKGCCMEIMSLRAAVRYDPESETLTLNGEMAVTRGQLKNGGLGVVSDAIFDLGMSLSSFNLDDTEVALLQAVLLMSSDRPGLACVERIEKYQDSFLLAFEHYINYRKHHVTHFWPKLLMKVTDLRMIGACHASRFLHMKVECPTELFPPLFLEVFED
UniProt Q03181, whole entry: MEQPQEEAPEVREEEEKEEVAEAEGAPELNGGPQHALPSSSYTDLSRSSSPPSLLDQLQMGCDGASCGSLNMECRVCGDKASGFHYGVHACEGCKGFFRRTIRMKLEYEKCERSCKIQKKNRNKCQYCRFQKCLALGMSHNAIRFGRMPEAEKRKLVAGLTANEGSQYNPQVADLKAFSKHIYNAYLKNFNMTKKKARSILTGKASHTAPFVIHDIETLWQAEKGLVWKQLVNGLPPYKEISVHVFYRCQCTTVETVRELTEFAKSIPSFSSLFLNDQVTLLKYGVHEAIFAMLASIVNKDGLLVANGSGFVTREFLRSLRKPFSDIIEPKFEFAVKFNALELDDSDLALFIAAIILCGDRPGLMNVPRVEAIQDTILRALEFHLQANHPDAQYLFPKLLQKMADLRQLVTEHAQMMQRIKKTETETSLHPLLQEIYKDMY
UniProt P11712, whole entry: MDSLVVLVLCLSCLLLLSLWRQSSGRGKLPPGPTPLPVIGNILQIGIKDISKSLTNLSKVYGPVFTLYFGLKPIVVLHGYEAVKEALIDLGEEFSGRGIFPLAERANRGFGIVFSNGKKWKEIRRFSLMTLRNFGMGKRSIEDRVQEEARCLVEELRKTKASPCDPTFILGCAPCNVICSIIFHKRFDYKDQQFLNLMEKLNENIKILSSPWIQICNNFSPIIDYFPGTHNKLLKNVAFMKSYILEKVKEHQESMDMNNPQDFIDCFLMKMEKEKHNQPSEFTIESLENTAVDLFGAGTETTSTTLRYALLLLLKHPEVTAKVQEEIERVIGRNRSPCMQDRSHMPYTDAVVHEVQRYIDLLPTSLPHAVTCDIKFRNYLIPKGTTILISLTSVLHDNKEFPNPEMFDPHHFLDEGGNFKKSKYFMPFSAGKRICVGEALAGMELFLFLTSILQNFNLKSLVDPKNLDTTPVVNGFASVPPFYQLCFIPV
UniProt Q12809, 1-548 isoform 6: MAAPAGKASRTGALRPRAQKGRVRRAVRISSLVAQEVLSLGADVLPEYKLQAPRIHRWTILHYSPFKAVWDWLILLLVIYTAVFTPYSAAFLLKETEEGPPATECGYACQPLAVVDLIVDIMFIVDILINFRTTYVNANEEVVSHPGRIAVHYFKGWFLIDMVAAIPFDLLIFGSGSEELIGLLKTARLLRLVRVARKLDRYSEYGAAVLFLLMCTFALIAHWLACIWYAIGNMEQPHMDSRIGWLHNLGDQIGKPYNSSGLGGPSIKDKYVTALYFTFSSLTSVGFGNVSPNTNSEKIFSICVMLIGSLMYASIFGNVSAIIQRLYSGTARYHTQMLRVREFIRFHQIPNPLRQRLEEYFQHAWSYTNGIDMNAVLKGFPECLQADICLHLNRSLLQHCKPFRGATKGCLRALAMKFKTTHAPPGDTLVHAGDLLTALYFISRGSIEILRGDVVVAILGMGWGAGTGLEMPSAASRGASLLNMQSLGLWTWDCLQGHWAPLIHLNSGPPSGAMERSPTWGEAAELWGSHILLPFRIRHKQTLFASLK

Assay [1] is described as follows: Cell Viability - SH-SY5Y (AID 544).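 Also: cells exposed to compound for 40 hours; nearly all actives have a fitted effect of over 55% in size.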 Particulars: SH-SY5Y neuroblastoma cell viability; at 92.2 µM (top of the series). The gist of the method: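 Luminescent ATP read-out (CellTiter-Glo) measures loss of viable SH-SY5Y neuroblastoma cells after 40 hr compound exposure at 37 °C. AC50 values derive from standard Hill modelling of qHTS concentration-response data.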

The nature of assay [2]: Cell Viability - Renal Proximal Tubule (AID 545).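 Also: cells exposed to compound for 40 hours; nearly all actives have a fitted effect of over 40% in size.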 Particulars: renal proximal tubule cells viability, primary cells of rat origin; at 91.7 µM (top of the series). The procedure, abridged:
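Viability taken as intracellular ATP (CellTiter-Glo luminescence) after 40 hr, 37 °C compound treatment of primary proximal tubule cells from rat kidney, 1000 cells/well; Hill-equation fits of qHTS concentration-response data gave AC50.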

Assay [3] concerns the target Peroxisome proliferator-activated receptor alpha (Homo sapiens) (UniProt Q07869). As to the kind of experiment: qHTS assay for small molecule agonists of the peroxisome proliferator-activated receptor alpha (PPARalpha) signaling pathway (AID 651778). Also: % of control where 0% means no effect. The conditions noted are these: PathHunter PPARalpha complementation, chemiluminescence, 6 h; active compounds read high. The gist of the method: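 Enzyme-fragment complementation assay in which ligand-bound PPARalpha translocates and forms an active enzyme that generates chemiluminescence. Cells were plated overnight, exposed to compound for 6 hr at 37 C, and then given detection reagent for 60 min at room temperature.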

Assay [4] can be described thus: Cellular Toxicity (caspase-3) Hek293 (AID 664).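 Also: cells exposed to compound for 16 h at 37 °C before readout.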 The conditions noted are these: HEK293 caspase-3 activation, DMSO = 0%, 100 µM tamoxifen = 100%; at 92.2 µM (top of the series). The procedure, abridged:
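Cells plated, 5 hr at 37 °C; compounds added; 16 hr at 37 °C; Caspase-Glo 3/7 reagent, 20 min RT; luminescence read. Activation expressed relative to DMSO and 100 uM tamoxifen, AC50 by Hill model.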

Assay [5] is described as follows: MultiTox-Fluor Cytotoxicity Assay - LYMP1-002 - Live Cells (AID 955).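 Also: cells exposed to compound for 16 hours; % is scaled to controls: 0 for no effect and ±100 for the full control effect.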 The conditions noted are these: LYMP1-002 lymphoblastoid live-cell protease fluorescence viability; at 46.1 µM (top of the series). The gist of the method: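 Read-out is live-cell protease activity (cell-permeant GF-AFC substrate, fluorescence Ex/Em=405/510), where a decrease indicates acute toxicity. Human lymphoblastoid cells were treated 16 hours at 37 C in a concentration series, and AC50 values came from standard Hill modelling.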

The target of assay [6] is Retinoic acid receptor RXR-alpha (Homo sapiens) (UniProt P19793). As to the kind of experiment: qHTS assay for small molecule agonists of retinoid X receptor alpha signaling (AID 588544; calls by dose curve;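 also: 0% = DMSO basal wells and 100% = reference agonist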). Particulars: HEK293T RXRa-UAS-bla, beta-lactamase reporter, 18 h; at 76.7 µM (top of the series).
Assay [7] concerns the target Thyroid hormone receptor beta (Homo sapiens) (UniProt P10828). The assay is described as follows: qHTS assay for small molecule antagonists of thyroid hormone receptor beta signaling (AID 588547; active = well fitted inhibition curve with a large enough effect in the signal ratio, with a control signal flat, not every such curve was filed as active; the % refers to the signal ratio). Particulars: TR-UAS-bla HEK293, beta-lactamase ratio, antagonist mode, 18 h; active compounds read low. The procedure, abridged: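 TR-UAS-bla GripTite HEK293 cells in 2% charcoal/dextran FBS medium; compounds 0.59 nM to 92 uM with T3 at 0.4nM final, 18 h at 37 C. Beta-lactamase read by CCF4 fluorescence (460/530 nm); Hill fits gave IC50 and efficacy.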

Assay [8] is described as follows: Cell Viability - LYMP2-023 (AID 975).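 Also: cellular ATP measured by luciferase luminescence as viability proxy; cells exposed to compound for 24 hours at 37 °C; plate controls were DMSO only for no effect and 92 µM tetraoctylammonium bromide control for full effect; nearly all actives have a fitted effect of over 55% in size.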 Particulars: LYMP2-023 lymphoblastoid cell viability; at 92.2 µM (top of the series). The procedure, abridged:
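2500 cells/well, 5 hr 37 C; cpd 24 hr 37 C; CellTiter-Glo, 30 min RT; luminescence. qHTS conc-response, Hill fit -> AC50. Pos ctrl tetraoctylammonium bromide.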

Assay [9] concerns the target Peroxisome proliferator-activated receptor delta (Homo sapiens) (UniProt Q03181). As to the kind of experiment: qHTS assay for small molecule agonists of peroxisome proliferator-activated receptor delta signaling (AID 588534; calls by dose curve;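 also: 0% = DMSO basal wells and 100% = positive control agonist at 10 µM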). Particulars: HEK293T PPARdelta-UAS-bla, beta-lactamase ratio, 18 h; at 76.7 µM (top of the series).
The nature of assay [10]: Validation screen for small molecules that induce DNA re-replication in SW480 colon adenocarcinoma cells (AID 504364). Also: 0% is about no effect. Particulars: DNA re-replication phenotype (high-content imaging); at 46.1 µM (top of the series). The gist of the method: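 250 cells/well; compound pinned in; 48 hr, 37 C, 5% CO2; Hoechst added, 40 min; nuclear fluorescence imaged, 405 ex / 500-530 em; re-replication scored as increase in high-intensity nuclei.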

Assay [11] in a line: P-glycoprotein substrates identified in KB-8-5-11 adenocarcinoma cell line, qHTS therapeutic library screen (AID 1346987). Also: potency is read from the fitted curve at half-maximal effect; nearly all actives have a fitted effect of over 65% in size. Particulars: KB-8-5-11 (P-gp overexpressing) viability, CellTiter-Glo, 72 h. The procedure, abridged:
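Steps: plate 500 KB-8-5-11 cells/well in DMEM + 10% FCS (colchicine removed); pin compounds in dose-response; incubate 72 h, 37 degree C, 5% CO2; add CellTiter-Glo, 5 min; read luminescence.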

The nature of assay [12]: qHTS of pediatric cancer cell lines to identify multiple opportunities for drug repurposing: Primary screen for BT-37 cells (AID 1347094). Also: potency is read from the fitted curve at half-maximal effect. The conditions noted are these: BT-37 viability, CellTiter-Glo luminescence, 48 h. The procedure, abridged: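 Luminescence from CellTiter-Glo served as readout of metabolically active cells after 48 h compound exposure. Titrations: MIPE 11-point, from 0.78 nM; NPC 8-point, from 0.59 nM (final). Concentration-response curves came straight from the primary screen.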

Assay [13] can be described thus: qHTS of pediatric cancer cell lines to identify multiple opportunities for drug repurposing: Primary screen for NB-EBc1 cells (AID 1347095). Also: potency is read from the fitted curve at half-maximal effect. Particulars: NB-EBc1 neuroblastoma viability, CellTiter-Glo luminescence, 48 h.
For assay [14], the target named is Cytochrome P450 2C9 (Homo sapiens) (UniProt P11712). As to the kind of experiment: Cytochrome P450 family 2 subfamily C member 9 (CYP2C9) small molecule antagonists: luciferase qHTS assay (AID 1645842; active = well fitted curve in the direction sought with a large enough effect in the repeat runs; an effect the other way counts as inactive or inconclusive; also: potency is read from the fitted curve at half-maximal effect; nearly all actives have a fitted effect of over 55% in size). Particulars: P450-Glo CYP2C9 enzyme assay, luciferin luminescence. The gist of the method: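 Luminescence, after 20 min with luciferin detection reagent, reflected CYP2C9 turnover during a 1 h NADPH-driven reaction at 37C. Enzyme-substrate mix contained 0.4% bovine serum albumin and was preincubated with compound 10 min at room temperature.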

Assay [15] deals with Peroxisome proliferator-activated receptor delta (Homo sapiens) (UniProt Q03181). The assay is described as follows: qHTS assay for small molecule antagonists of peroxisome proliferator-activated receptor delta signaling (AID 588535; active = well fitted inhibition curve with a large enough effect in the signal ratio, with a control signal flat, not every such curve was filed as active; the % refers to the signal ratio). Particulars: HEK293T PPARd-UAS-bla, beta-lactamase FRET ratio, 18 h; at 76.7 µM (top of the series).
Assay [16] addresses Voltage-gated inwardly rectifying potassium channel KCNH2 (Homo sapiens) (UniProt Q12809). The assay is described as follows: qHTS Assay for Small Molecule Inhibitors of the Human hERG Channel Activity (AID 588834).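 Also: U2OS cells transduced with hERG by BacMam; top concentration of the series differs between compounds; % is scaled to controls: 0 for no effect and ±100 for the full control effect; lower thallium flux fluorescence means stronger hERG block; nearly all actives have a fitted effect of over 50% in size.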 The conditions noted are these: U2OS BacMam hERG, FluxOR thallium flux fluorescence; at 46.1 µM (top of the series).
The nature of assay [17]: S16 Schwann cell PMP22 intronic element firefly luciferase assay (AID 624032).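 Also: plate controls were DMSO for no effect and PTC124 positive control mean for full effect; nearly all actives have a fitted effect of over 30% in size.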 The conditions noted are these: S16 rat Schwann cells, PMP22 element FLuc, 24 h; at 57.5 µM (top of the series).
Assay [18] can be described thus: qHTS assay for small molecule agonists of the antioxidant response element (ARE) signaling pathway measured by Nrf2-dependant transcriptional activity - cell viability counter screen (AID 720653; active = well fitted curve in the direction sought with a large enough effect in the repeat runs; an effect the other way counts as inactive or inconclusive; also: potency is read from the fitted curve at half-maximal effect). Particulars: ARE-bla HepG2 viability, CellTiter-Glo ATP luminescence, 16 h. The gist of the method:
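ARE-bla HepG2 cells treated with compounds for 16 h at 37C; this counter screen measures viability as intracellular ATP by CellTiter-Glo luminescence after 30 min at room temperature.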

Another assay relates to WaGa. The assay is described as follows: qHTS assay to identify novel small-molecules to repurpose for Merkel cell carcinoma treatment (AID 1296009). Also: % is scaled to controls: 0 for no effect and ±100 for the full control effect; nearly all actives have a fitted effect of over 60% in size. The conditions noted are these: MCC and control cell lines, CellTiter-Glo viability, 72 h; at 46 µM (top of the series). The gist of the method: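 Cells were treated for 72 hr at 37 degree celsius with compounds in 8- or 11-point dose response. Viability was read by CellTiter-Glo luminescence, normalized to no-cell (cytotoxicity) and DMSO controls.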

SMILES strings stand for the structures. This is a selection; strong and weak results do not stand in their true shares. Records with an inconclusive call do not appear. For some assays here: Measured potencies and affinities stand elsewhere. Calls of active or inactive are those of the source. Unless noted, calls follow the shape of the dose curve; as a rule, active = well fitted curve in the direction sought with a large enough effect; inconclusive = small, poorly fitted or top-dose-only effect, or another doubt; inactive = no such curve, though single readings can be large; an effect the other way counts as inactive or inconclusive.

For `CCOP(=O)(CC)OCC`, the viability change, negative = cytotoxic in [1] was inactive: -2.78%.

`Cc1ccc([N+](=O)[O-])c([N+](=O)[O-])c1`: the activity change, negative = cytotoxicity in [2] is inactive: -1.47%. For the same molecule, the max response in assay [3] is inactive: -1.47%.

`NC(=O)Nc1ccc([As](=O)(O)O)cc1`: in assay [4], the caspase-3 activation was inactive: -1.17%. Also, the viability change, negative = cytotoxic in assay [5] was inactive: 1.41%. Besides, the activation in assay [6] is inactive: 8.65%. For the same molecule, the inhibition in [7] was inactive: 1.41%.

`[NH4+].[O-][Cl+3]([O-])([O-])[O-]`: the activity change, negative = cytotoxicity in [8] is inactive: 1.76%. For the same molecule, the activation in [9] was inactive: 1.74%.

Turning to `CN(C(=O)Cc1ccc(Cl)c(Cl)c1)[C@@H]1CC[C@]2(CCCO2)C[C@H]1N1CCCC1`, the activity (re-replication induction) in assay [10] was inactive: 15.9%.

`Cc1cc([N+](=O)[O-])cc([N+](=O)[O-])c1O`: the activation in assay [9] is inactive: -14.9%. The Potency was active: 35.5 µM in assay [11], active: 35.5 µM in assay [12], active: 21.7 µM in [13] and active: 32.6 µM in assay [14].

`Cc1c([N+](=O)[O-])cccc1[N+](=O)[O-]`: the activity change, negative = inhibition in assay [15] is inactive: 7.63%.

As to `O=[N+]([O-])[O-].[NH4+]`, the activity change, negative = inhibition in assay [16] was inactive: -14.1%; in [17] it was inactive: 18.2%.

Take `O=C1C2CC=CCC2C(=O)N1SC(Cl)(Cl)C(Cl)Cl` (stereo not given): in [18], the Potency is active: 14.1 µM.

Consider `OCCSCCO`, for which the activity change, negative = cytotoxicity in the assay on WaGa is inactive: 11.9%.
